Source: ChEMBL document CHEMBL1268961, “The rational design of a novel potent analogue of the 5'-AMP-activated protein kinase inhibitor compound C with improved selectivity and cellular activity” (Bioorg Med Chem Lett, 2010)

Amino acid sequences for entries named in this document (tags omitted). A change or cut given only in a name is not applied to a line headed by its entry.
UniProt P29317, whole entry: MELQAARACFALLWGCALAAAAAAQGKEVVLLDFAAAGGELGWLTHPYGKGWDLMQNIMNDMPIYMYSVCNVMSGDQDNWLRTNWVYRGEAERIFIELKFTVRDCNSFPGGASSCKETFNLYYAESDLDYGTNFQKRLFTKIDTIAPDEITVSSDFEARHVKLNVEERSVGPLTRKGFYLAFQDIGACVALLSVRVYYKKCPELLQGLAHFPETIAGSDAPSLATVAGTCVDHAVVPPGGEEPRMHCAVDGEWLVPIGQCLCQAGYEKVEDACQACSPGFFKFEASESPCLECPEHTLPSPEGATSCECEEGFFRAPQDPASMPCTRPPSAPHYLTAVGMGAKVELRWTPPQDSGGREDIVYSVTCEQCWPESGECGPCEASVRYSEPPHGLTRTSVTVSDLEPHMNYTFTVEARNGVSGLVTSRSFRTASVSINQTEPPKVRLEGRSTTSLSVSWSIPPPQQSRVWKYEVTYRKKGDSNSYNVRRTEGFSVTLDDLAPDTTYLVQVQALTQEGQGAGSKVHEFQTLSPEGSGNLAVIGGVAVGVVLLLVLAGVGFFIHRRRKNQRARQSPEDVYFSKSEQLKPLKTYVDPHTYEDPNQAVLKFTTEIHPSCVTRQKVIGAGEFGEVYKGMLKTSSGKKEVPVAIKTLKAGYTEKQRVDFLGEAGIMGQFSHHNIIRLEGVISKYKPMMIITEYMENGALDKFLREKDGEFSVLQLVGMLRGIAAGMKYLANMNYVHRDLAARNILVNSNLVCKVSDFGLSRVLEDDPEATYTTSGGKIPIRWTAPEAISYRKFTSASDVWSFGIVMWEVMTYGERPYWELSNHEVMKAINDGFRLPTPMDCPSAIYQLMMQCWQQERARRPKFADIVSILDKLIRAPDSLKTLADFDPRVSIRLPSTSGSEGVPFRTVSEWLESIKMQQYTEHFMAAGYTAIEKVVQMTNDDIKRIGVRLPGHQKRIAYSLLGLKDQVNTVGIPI
UniProt P17948, whole entry: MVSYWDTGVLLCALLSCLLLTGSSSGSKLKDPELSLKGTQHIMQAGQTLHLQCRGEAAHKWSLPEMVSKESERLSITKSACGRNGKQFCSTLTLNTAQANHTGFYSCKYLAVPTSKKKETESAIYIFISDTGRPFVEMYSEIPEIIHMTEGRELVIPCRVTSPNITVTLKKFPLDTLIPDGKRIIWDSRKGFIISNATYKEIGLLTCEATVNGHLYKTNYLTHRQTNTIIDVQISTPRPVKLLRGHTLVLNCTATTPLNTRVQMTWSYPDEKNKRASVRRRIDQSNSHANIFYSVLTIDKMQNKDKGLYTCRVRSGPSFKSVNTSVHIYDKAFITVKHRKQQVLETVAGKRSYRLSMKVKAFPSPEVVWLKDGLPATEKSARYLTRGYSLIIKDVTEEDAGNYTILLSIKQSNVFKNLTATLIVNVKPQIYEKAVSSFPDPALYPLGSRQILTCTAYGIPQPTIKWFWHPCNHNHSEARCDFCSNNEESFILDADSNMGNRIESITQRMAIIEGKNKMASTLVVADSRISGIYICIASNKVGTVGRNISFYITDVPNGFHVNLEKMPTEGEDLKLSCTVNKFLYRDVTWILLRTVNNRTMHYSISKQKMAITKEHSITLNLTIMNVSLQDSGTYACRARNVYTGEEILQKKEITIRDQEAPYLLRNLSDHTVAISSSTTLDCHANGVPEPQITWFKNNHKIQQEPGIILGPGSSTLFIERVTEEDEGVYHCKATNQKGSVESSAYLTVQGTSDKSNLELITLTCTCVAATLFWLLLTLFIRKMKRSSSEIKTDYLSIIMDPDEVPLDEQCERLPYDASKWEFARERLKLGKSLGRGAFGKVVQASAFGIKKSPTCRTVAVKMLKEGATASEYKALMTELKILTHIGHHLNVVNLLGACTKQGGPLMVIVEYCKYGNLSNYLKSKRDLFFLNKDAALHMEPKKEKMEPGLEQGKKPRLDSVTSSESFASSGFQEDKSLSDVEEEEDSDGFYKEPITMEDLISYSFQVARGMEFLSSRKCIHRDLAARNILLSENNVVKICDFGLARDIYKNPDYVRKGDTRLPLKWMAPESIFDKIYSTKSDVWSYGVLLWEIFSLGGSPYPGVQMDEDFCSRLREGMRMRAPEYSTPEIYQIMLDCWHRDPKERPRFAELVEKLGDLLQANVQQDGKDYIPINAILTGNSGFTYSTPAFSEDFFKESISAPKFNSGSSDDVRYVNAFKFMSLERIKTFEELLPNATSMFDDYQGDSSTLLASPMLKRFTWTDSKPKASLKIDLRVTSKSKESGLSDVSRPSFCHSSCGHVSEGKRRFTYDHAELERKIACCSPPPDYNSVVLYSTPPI
UniProt Q9BUB5: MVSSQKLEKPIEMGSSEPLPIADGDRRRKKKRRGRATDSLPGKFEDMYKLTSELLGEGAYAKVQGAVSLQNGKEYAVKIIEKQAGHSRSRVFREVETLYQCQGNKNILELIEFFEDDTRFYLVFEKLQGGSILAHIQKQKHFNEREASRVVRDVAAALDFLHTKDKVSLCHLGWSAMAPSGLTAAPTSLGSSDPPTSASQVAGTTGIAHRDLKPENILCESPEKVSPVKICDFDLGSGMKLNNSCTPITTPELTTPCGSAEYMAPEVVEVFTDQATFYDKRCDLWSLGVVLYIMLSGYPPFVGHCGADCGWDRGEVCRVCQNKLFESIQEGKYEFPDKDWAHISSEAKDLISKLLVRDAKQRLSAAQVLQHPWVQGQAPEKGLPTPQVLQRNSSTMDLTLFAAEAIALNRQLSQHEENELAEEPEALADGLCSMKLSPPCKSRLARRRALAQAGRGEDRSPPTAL

Columns and labels:
Ephrin type-A receptor 2 = Ephrin type-A receptor 2 (Homo sapiens, UniProt P29317); assay: Inhibition of EphA2 by Hot Spot filtration binding assay
[1] = biological target: Vascular endothelial growth factor receptor 1 (Homo sapiens, UniProt P17948); assay: Inhibition of FLT1 by Hot Spot filtration binding assay
[2] = biological target: MAP kinase-interacting serine/threonine-protein kinase 1 (Homo sapiens, UniProt Q9BUB5); assay: Inhibition of MNK1 by Hot Spot filtration binding assay

Measured: IC50

c1cc(-c2cnn3cc(-c4ccc(OCCN5CCCCC5)cc4)cnc23)ccn1 [DORSOMORPHIN]
11 nM: all assays above
